The list shows a part of the results, in another mix than the full data. Some results for these compounds are left out of this collection, so the calls shown say nothing about other tests. Active and inactive are the calls of the source.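 Rule for the calls: active = growth inhibition at or above a cutoff equal to the mean over every tested compound plus 3 SD (cut at about 60% in these data); inactive = the rest.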

The test is described as follows: growth inhibitors of E. coli tolC mutant, primary screen, strain BW25113 ΔtolC::kan, 384-well (AID 573).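 Note: growth measured after 20 h incubation at 37 °C.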 The following applies: OD615, stronger effect = higher value, screened at 10 µM (by protocol). The essentials: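 Test system – E. coli BW25113 ΔtolC::kan, tolC deletion mutant strain · Detection – OD at 615 nm · Buffer or medium – LB with kanamycin 50 µg/mL · Times – 20 h compound exposure of bacteria at 37 °C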
As for `O=C(OC1CN2CCC1CC2)C(CO)(c1ccccc1)c1ccccc1` (configuration not stated), the growth inhibition is inactive: -21.1%.

Consider `CN(C)c1cccc(C(=O)NCC2(N(C)C)CCCCC2)c1`, for which the growth inhibition was inactive: -12.6%.

The values are drawn from PubChem BioAssay AID573 (SRMLSC, 2007).
